Here are results for 1 compound from paper PMC8632000, “Dose Tailoring of Vancomycin Through Population Pharmacokinetic Modeling Among Surgical Patients in Pakistan” (Frontiers in Pharmacology, 2021).

The series in a line: Population pharmacokinetic model (NONMEM) of vancomycin plasma concentration-time data in surgical patients. The note with it: one-compartment final model; clearance at a CRCL of 101.15 mL/min and weight of 75 kg; 58 patients.

Regarding `CN[C@H](CC(C)C)C(=O)N[C@H]1C(=O)N[C@@H](CC(N)=O)C(=O)N[C@H]2C(=O)N[C@H]3C(=O)N[C@H](C(=O)N[C@H](C(=O)O)c4cc(O)cc(O)c4-c4cc3ccc4O)[C@H](O)c3ccc(c(Cl)c3)Oc3cc2cc(c3O[C@@H]2O[C@H](CO)[C@@H](O)[C@H](O)[C@H]2O[C@H]2C[C@](C)(N)[C@H](O)[C@H](C)O2)Oc2ccc(cc2Cl)[C@H]1O` [Vancomycin], the “CL, final estimate” value is 2.45 L/h.
